{
  "sequences": {"note": "Amino acid sequences for entries named in this document (tags omitted).", "UniProt P60953, whole entry": "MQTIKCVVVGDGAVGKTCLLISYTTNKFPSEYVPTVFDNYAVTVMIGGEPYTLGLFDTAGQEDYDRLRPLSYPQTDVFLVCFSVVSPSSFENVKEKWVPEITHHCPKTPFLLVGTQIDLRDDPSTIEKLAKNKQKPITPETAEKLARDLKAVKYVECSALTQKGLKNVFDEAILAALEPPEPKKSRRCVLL"},
  "source": "PubChem BioAssay AID761",
  "about": "(NMMLSC, 2007)",
  "note": "Only a part is listed here, and it is no random draw. Some tests of the compounds listed are not included; inactive here does not mean inactive elsewhere. The source made the active and inactive calls.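 Rule for the calls: active = percent activity GTP binding at least 20 points away from the 100% baseline, either down as inhibitor or up as activator; inconclusive = compound flagged as likely green fluorescent from well-wide comparison; inactive = the rest.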",
  "data": [
    {"molecular_target": "Cell division control protein 42 homolog (Homo sapiens) (UniProt P60953)", "assay": "modulators of GTP binding to wildtype Cdc42, primary screen, biochemical, multiplex bead flow cytometry, Bodipy-GTP (AID 761);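 note: median bead fluorescence of bound Bodipy-FL-GTP at 100 nM; 0% = excess unlabeled GTP control and 100% = no compound control; below 100% means less GTP binding so inhibitor and above means activator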", "conditions": "GST-Cdc42 beads, at 10 µM, actives lie on both sides", "values": [
      {"compound": "COc1cccc(C(=O)NCC2(N3CCCCC3)CCCCC2)c1", "percent activity (GTP binding)": "inactive: 96%"},
      {"compound": "CN(C)c1cccc(C(=O)NCC2(N(C)C)CCCCC2)c1", "percent activity (GTP binding)": "inactive: 104%"},
      {"compound": "O=C(OC1CN2CCC1CC2)C(CO)(c1ccccc1)c1ccccc1", "note": "(centres undefined)", "percent activity (GTP binding)": "inactive: 99%"},
      {"compound": "CC(C)N1C(=O)CC2(CCN(CCOC(=O)C(O)(c3ccccc3)c3ccccc3)CC2)C1=O", "percent activity (GTP binding)": "inactive: 104%"},
      {"compound": "O=C(NCC1(N2CCCCC2)CCCCC1)c1cc([N+](=O)[O-])ccc1Cl", "percent activity (GTP binding)": "inactive: 94%"},
      {"compound": "C=CCN1CCN(CCOC(=O)C(O)(c2ccccc2)c2ccccc2)CC1", "percent activity (GTP binding)": "inactive: 97%"},
      {"compound": "CCN1CCCC(OC(=O)C2(O)c3ccccc3C=Cc3ccccc32)C1", "note": "(centres undefined)", "percent activity (GTP binding)": "inactive: 100%"},
      {"compound": "CN(C)C1CCCC1OC(=O)C(O)(c1ccccc1)c1ccccc1", "note": "(centres undefined)", "percent activity (GTP binding)": "inactive: 103%"},
      {"compound": "Cc1ccccc1C(=O)NCC1(N2CCCCC2)CCCCC1", "percent activity (GTP binding)": "inactive: 97%"}
    ]}
  ]
}
